Laboratory results published in patent publication US10988505B2.
pKi: −log10 of the molar value.

Chains of the proteins cited; added tags and fusions are not shown. Residues count along the entry.
UniProt Q9Y5Y6, 615-855: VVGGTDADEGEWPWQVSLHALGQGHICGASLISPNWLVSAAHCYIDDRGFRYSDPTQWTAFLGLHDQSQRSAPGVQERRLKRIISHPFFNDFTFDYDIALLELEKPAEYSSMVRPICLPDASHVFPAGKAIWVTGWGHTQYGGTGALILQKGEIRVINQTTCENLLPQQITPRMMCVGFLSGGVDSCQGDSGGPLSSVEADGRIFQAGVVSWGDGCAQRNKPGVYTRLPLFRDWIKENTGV

Target: recombinant human matriptase (Homo sapiens (Human), UniProt Q9Y5Y6)
Assay: Matriptase inhibition, Ki determination
Assay type: biochemical
Conditions: purified recombinant human matriptase, Boc-Gln-Ala-Arg-AMC substrate, pH 7.4

Structure (SMILES): C[C@H](NC(=O)[C@H](CCC(N)=O)NC(=O)[C@@H](N)CCCNC(=N)N)C(=O)N[C@@H](CCCNC(=N)N)C(=O)c1nc2ccccc2s1 [Comparative #1]
- pKi: 10.94
